Measured values published in patent publication US20240189343A1, “TREATMENT OF VIRUS INFECTIONS” (priority 2021, published 2024).

Columns and labels:
[1] = test system: DENV2 (strain New Guinea C)
[2] = test system: ZIKV African lineage (Strain MP1751)
[3] = test system: ZIKV Asian lineage (PF/13)

For dextran sulfate, the “SI (=TC50/EC50)” value [1] was over 83, the “SI (=TC50/EC50)” value (DENV1 (strain Hawaii)) was over 34 and the “SI (=TC50/EC50)” value [2] was over 167. For the same substance, the “SI (=TC50/EC50)” value (DENV3 (strain H87)) was over 333, the “SI (=TC50/EC50)” value [3] was over 71 and the “SI (=TC50/EC50)” value (DENV4 (strain H241)) was over 16.
